{"source": "patent US9206463B2", "about": "“Method of testing a disinfectant or antibiotic using phenanthridium derivatives” (Montana State University, priority 2006, dated 2015)", "key": {"[1]": {"test_system": "bacterial duck pond isolates", "assay": "defined mixtures of live and isopropanol-killed isolates, PMA treatment, 16S rRNA gene DGGE profile", "format": "cell-based", "conditions": "PMA 50 μM"}, "Anoxybacillus": {"test_system": "Anoxybacillus", "conditions": "PCR inhibition after treating viable cells; cited from earlier work"}, "Micrococcus luteus": {"test_system": "Micrococcus luteus", "assay": "genomic DNA yield of live cells after EMA treatment", "conditions": "EMA 50 μM"}, "[2]": {"test_system": "Salmonella enterica serovar Typhimurium", "assay": "hypochlorite disinfection, loss of culturability by plate counts", "format": "cell-based"}, "[3]": {"test_system": "Salmonella enterica serovar Typhimurium", "assay": "hypochlorite disinfection monitored by PMA treatment, DNA extraction and qPCR of invA", "format": "cell-based"}}, "data": [{"smiles": "CC[N+](C)(CC)CCC[n+]1c(-c2ccccc2)c2cc(N=[N+]=[N-])ccc2c2ccc(N)cc21.[Cl-].[Cl-]", "note": "[PMA]", "values": [{"measurement": "DGGE bands after PMA treatment", "setting": "[1]", "result": "suppression of bands of the isopropanol-killed isolates"}]}, {"smiles": "CC(C)O", "note": "[isopropanol]", "values": [{"measurement": "viability after isopropanol exposure", "setting": "Streptococcus sobrinus", "result": "complete loss of viability"}]}, {"smiles": "CC[n+]1c(-c2ccccc2)c2cc(N=[N+]=[N-])ccc2c2ccc(N)cc21.[Br-]", "note": "[EMA]", "values": [{"measurement": "suitability for live-dead differentiation", "setting": "Anoxybacillus", "result": "unsuitable for live-dead differentiation"}, {"measurement": "loss of DNA due to EMA treatment of live cells", "setting": "Micrococcus luteus", "result": "significant loss of DNA"}]}, {"smiles": "[Na+].[O-]Cl", "note": "[hypochlorite, sodium hypochorite]", "values": [{"measurement": "hypochlorite concentrations resulting in complete loss of culturability", "setting": "[2]", "result": "≥ 25", "unit": "ppm"}, {"measurement": "hypochlorite concentrations with only minor effect on plate counts", "setting": "[2]; 15 minutes incubation", "result": "up to 10 ppm"}, {"measurement": "strongest qPCR signal reduction", "setting": "[3]; 40 ppm hypochlorite, Ct of PMA-treated versus non-treated aliquots, invA", "result": "around 14 amplification cycles"}, {"measurement": "hypochlorite concentration at which the cell debris pellet of PMA-treated samples starts to be increasingly red", "setting": "[3]; 15 minutes incubation, PMA 50 μM", "result": "around 25 ppm"}, {"measurement": "hypochlorite concentration at which qPCR signal reduction started to be significant", "setting": "[3]; Ct of PMA-treated versus non-treated aliquots, invA", "result": 20, "unit": "ppm"}]}]}
